Data: ChEMBL document CHEMBL5230144, “Synthesis and Biological Evaluation of Celastrol Derivatives with Improved Cytotoxic Selectivity and Antitumor Activities” (J Nat Prod, 2021)
Activity calls are given as the source filed them.

Amino acid sequences for entries named in this document (tags omitted). A change or cut given only in a name is not applied to a line headed by its entry.
UniProt P08238: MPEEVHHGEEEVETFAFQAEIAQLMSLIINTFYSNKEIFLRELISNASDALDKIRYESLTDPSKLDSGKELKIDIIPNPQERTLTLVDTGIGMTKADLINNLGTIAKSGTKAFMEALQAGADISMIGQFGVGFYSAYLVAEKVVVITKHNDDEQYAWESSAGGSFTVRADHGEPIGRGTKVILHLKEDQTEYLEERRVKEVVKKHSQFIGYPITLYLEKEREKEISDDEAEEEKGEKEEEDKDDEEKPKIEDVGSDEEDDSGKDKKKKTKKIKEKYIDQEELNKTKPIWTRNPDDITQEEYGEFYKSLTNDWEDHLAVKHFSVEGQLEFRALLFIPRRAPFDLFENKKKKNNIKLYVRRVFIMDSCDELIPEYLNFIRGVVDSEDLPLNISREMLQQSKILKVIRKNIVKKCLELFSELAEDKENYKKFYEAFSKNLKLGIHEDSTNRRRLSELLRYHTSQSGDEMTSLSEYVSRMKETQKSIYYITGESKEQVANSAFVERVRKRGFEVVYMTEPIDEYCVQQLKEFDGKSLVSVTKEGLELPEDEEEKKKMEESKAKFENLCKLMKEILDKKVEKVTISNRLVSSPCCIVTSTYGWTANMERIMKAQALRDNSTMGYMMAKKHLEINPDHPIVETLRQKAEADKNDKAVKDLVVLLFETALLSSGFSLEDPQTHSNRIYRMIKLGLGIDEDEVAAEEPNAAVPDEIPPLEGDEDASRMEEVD
UniProt Q16543: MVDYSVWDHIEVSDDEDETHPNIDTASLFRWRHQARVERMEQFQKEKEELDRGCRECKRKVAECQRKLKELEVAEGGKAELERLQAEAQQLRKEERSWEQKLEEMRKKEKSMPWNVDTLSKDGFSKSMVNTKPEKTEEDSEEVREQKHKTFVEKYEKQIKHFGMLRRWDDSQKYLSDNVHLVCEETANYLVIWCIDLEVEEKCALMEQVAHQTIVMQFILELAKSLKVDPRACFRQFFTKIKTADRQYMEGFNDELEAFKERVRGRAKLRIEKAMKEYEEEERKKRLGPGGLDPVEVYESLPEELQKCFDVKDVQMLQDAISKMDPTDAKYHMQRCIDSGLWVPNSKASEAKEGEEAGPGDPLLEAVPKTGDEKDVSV

How the values were obtained:
[1] = target: T1, Heat shock protein HSP 90-beta/Hsp90 co-chaperone Cdc37 (Homo sapiens, UniProt P08238+Q16543); test: Disruption of HSP90 and Cdc37 in human MDA-MB-231 cells at 200 nM measured after 48 hrs by immunoprecipitation method; format: cell-based
[2] = target: T1, Heat shock protein HSP 90-beta/Hsp90 co-chaperone Cdc37; test: Disruption of HSP90 and Cdc37 in human MDA-MB-231 cells assessed as decrease of phosphorylated AKT expression measured by Western blot analysis; format: cell-based
[3] = target: T1, Heat shock protein HSP 90-beta/Hsp90 co-chaperone Cdc37; test: Disruption of HSP90 and Cdc37 in human MDA-MB-231 cells assessed as decrease of CDK4 expression measured by Western blot assay; format: cell-based
[4] = target: T1, Heat shock protein HSP 90-beta/Hsp90 co-chaperone Cdc37; test: Disruption of HSP90 and Cdc37 in human MDA-MB-231 cells assessed as increase of Bax/Bcl2 ratio at 100 nM measured by Western blot assay; format: cell-based
[5] = target: T1, Heat shock protein HSP 90-beta/Hsp90 co-chaperone Cdc37; test: Disruption of HSP90 and Cdc37 in human MDA-MB-231 cells assessed as increase of Bax/Bcl2 ratio at 200 nM measured by Western blot assay; format: cell-based
[6] = target: T1, Heat shock protein HSP 90-beta/Hsp90 co-chaperone Cdc37; test: Disruption of HSP90 and Cdc37 in human MDA-MB-231 cells assessed as increase of cytochrome C release at 100 nM measured by Western blot assay; format: cell-based
[7] = target: T1, Heat shock protein HSP 90-beta/Hsp90 co-chaperone Cdc37; test: Disruption of HSP90 and Cdc37 in human MDA-MB-231 cells assessed as increase of cytochrome C release at 200 nM measured by Western blot assay; format: cell-based
[8] = target: T1, Heat shock protein HSP 90-beta/Hsp90 co-chaperone Cdc37; test: Disruption of HSP90 and Cdc37 in human MDA-MB-231 cells assessed as increase of caspase 3 release at 100 nM measured by Western blot assay; format: cell-based
[9] = target: T1, Heat shock protein HSP 90-beta/Hsp90 co-chaperone Cdc37; test: Disruption of HSP90 and Cdc37 in human MDA-MB-231 cells assessed as increase of caspase 3 release at 200 nM measured by Western blot assay; format: cell-based
[10] = target: T1, Heat shock protein HSP 90-beta/Hsp90 co-chaperone Cdc37; test: Disruption of HSP90 and Cdc37 in human MDA-MB-231 cells assessed as increase of caspase 9 release at 100 nM measured by Western blot assay; format: cell-based
[11] = target: T1, Heat shock protein HSP 90-beta/Hsp90 co-chaperone Cdc37; test: Disruption of HSP90 and Cdc37 in human MDA-MB-231 cells assessed as increase of caspase 9 release at 200 nM measured by Western blot assay; format: cell-based
MDA-MB-231 [12] = test: Induction of cell cycle arrest in human MDA-MB-231 cells assessed as accumulation of cells at G0/G1 phase measured after 48 hrs by PI staining based flow cytometry analysis; format: functional
MDA-MB-231 [13] = test: Induction of mitochondrial apoptosis in human MDA-MB-231 cells measured after 48 hrs by Hoechst 33258/ JC1 staining based flow cytometry assay; format: functional, cell-based
MDA-MB-231 [14] = test: Antitumour activity against human MDA-MB-231 cells xenografted in nude mouse assessed as inhibition of tumour growth at 10 mg/kg, po measured after 26 days relative to carboplatin; format: functional, organism-based; conditions: time 26.0 day
MDA-MB-231 [15] = test: Antitumour activity against human MDA-MB-231 cells xenografted in nude mouse assessed as decrease of phosphorylated Akt expression at 10 mg/kg, po measured after 26 days by Western blot assay; format: functional, organism-based; conditions: time 26.0 day
MDA-MB-231 [16] = test: Antitumour activity against human MDA-MB-231 cells xenografted in nude mouse assessed as increase of Bax expression at 10 mg/kg, po measured after 26 days by Western blot assay; format: functional, organism-based; conditions: time 26.0 day
MDA-MB-231 [17] = test: Antitumour activity against human MDA-MB-231 cells xenografted in nude mouse assessed as increase of Bcl2 expression at 10 mg/kg, po measured after 26 days by Western blot assay; format: functional, organism-based; conditions: time 26.0 day
MDA-MB-231 [18] = test: Antitumour activity against human MDA-MB-231 cells xenografted in nude mouse assessed as decrease of HSP90 expression at 10 mg/kg, po measured after 26 days by Western blot assay; format: functional, organism-based; conditions: time 26.0 day
MDA-MB-231 [19] = test: Antitumour activity against human MDA-MB-231 cells xenografted in nude mouse assessed as decrease of Cdc37 expression at 10 mg/kg, po measured after 26 days by Western blot assay; format: functional, organism-based; conditions: time 26.0 day
Danio rerio [20] = organism: Danio rerio; test: Anti-angiogenesis activity in zebrafish embryo assessed as blockage of intersegmental vessels formation at 0.05 uM measured after 24 hrs by Flourescence assay; format: functional, organism-based
Danio rerio [21] = organism: Danio rerio; test: Anti-angiogenesis activity in zebrafish embryo assessed as blockage of intersegmental vessels formation at 0.1 uM measured after 24 hrs by Flourescence assay; format: functional, organism-based
Danio rerio [22] = organism: Danio rerio; test: Anti-angiogenesis activity in zebrafish embryo assessed as blockage of intersegmental vessels formation at 0.2 uM measured after 24 hrs by Flourescence assay; format: functional, organism-based

Measured: Activity

C#CCOC(=O)[C@]1(C)CC[C@]2(C)CC[C@]3(C)C4=CC=C5C(=CC(=O)C(OC(=O)N6CCC(N7CCCCC7)CC6)=C5C)[C@]4(C)CC[C@@]3(C)[C@@H]2C1
active: [1] | [2] Dose-Dependent Effect | [3] Dose-Dependent Effect | [4] | [5] | [6] | [7] | [8] | [9] | [10] | [11] | MDA-MB-231 [12] Dose-Dependent Effect | MDA-MB-231 [13] Dose-Dependent Effect | MDA-MB-231 [14] | MDA-MB-231 [15] | MDA-MB-231 [16] | MDA-MB-231 [17] | MDA-MB-231 [18] | MDA-MB-231 [19] | Danio rerio [20] | Danio rerio [21] | Danio rerio [22]
